Measurements: patent publication US20250195530A1, “POLQ INHIBITORS” (ASTRAZENECA AB, priority 2022, published 2025)

Chains of the proteins cited; added tags and fusions are not shown. Residues count along the entry.
UniProt O75417, 1780-2590: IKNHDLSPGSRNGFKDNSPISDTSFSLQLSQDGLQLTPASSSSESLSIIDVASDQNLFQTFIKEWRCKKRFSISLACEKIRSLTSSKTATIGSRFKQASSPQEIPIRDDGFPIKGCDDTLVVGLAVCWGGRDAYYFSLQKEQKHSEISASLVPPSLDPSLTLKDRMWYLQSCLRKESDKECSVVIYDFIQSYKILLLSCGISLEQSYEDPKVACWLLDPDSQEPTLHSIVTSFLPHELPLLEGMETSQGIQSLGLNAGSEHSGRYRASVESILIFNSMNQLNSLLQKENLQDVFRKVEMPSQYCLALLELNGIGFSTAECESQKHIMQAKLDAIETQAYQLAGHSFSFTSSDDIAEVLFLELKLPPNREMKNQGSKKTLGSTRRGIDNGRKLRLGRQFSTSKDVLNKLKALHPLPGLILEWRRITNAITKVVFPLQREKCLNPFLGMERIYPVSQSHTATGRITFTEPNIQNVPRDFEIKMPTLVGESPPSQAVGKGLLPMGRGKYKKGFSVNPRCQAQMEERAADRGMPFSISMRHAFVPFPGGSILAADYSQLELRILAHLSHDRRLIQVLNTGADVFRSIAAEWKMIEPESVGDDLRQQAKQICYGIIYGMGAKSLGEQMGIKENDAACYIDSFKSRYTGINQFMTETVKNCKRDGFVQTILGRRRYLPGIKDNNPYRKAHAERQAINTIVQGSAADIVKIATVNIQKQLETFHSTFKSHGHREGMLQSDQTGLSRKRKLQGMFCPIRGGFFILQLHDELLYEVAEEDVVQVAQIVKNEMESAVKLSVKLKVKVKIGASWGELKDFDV

Target: isolated polymerase domain (I1780-V2590) of DNA polymerase theta (Polθ) (Homo sapiens (Human), UniProt O75417)
Experiment: biochemical

IC50 [nM] | SMILES
6.31 | Cc1ccnc(Cn2c(-c3ccc(OCCCO)cc3Cl)nc3c(OC4(C)CC4)ncnc32)c1 [Example T124, 3-(3-chloro-4-(6-(1-methylcyclopropoxy)-9-((4-methylpyridin-2-yl)methyl)-9H-purin-8-yl)phenoxy)propan-1-ol]
6.31 | COc1ccc(Cl)cc1Cn1c(-c2cccc(CCCC(C)C(=O)O)c2Cl)nc2c(OC3(C)CC3)ncnc21 (racemic) [Example U55, 5-(2-chloro-3-(9-(5-chloro-2-methoxybenzyl)-6-(1-methylcyclopropoxy)-9H-purin-8-yl)phenyl)-2-methylpentanoic acid]
12.6 | Cc1ccnc(Cn2c(-c3ccc(C(=O)NC(C)(C)CO)cc3Cl)nc3c(OC4(C)CC4)ncnc32)c1 [Example T362, 3-chloro-N-(1-hydroxy-2-methylpropan-2-yl)-4-(6-(1-methylcyclopropoxy)-9-((4-methylpyridin-2-yl)methyl)-9H-purin-8-yl)benzamide]
3.98 | C[C@H](CCOc1ccc(-c2nc3c(OC4(C)CC4)ncnc3n2Cc2cc(Cl)ccc2C#N)c(Cl)c1)C(=O)O [Example U81, (R)-4-(3-chloro-4-(9-(5-chloro-2-cyanobenzyl)-6-(1-methylcyclopropoxy)-9H-purin-8-yl)phenoxy)-2-methylbutanoic acid]
6.31 | C[C@@H](COc1cccc(-c2nc3c(OC4(C)CC4)ncnc3n2Cc2cccc(Cl)c2)c1Cl)C(=O)O [Example T160, (S)-3-(2-chloro-3-(9-(3-chlorobenzyl)-6-(1-methylcyclopropoxy)-9H-purin-8-yl)phenoxy)-2-methylpropanoic acid]
5.01 | CC[C@@H](O)CNC(=O)COc1ccc(-c2nc3c(OC4(C)CC4)ncnc3n2Cc2cc(C)ccn2)c(Cl)c1 [Example T520, (R)-2-(3-chloro-4-(6-(1-methylcyclopropoxy)-9-((4-methylpyridin-2-yl)methyl)-9H-purin-8-yl)phenoxy)-N-(2-hydroxybutyl)acetamide]
3.16 | C[C@@H](CCOc1ccc(-c2nc3c(OC4(C)CC4)ncnc3n2Cc2cccc(Cl)c2)c(Cl)c1)C(=O)NCC(=O)O [Example U86, (S)-(4-(3-chloro-4-(9-(3-chlorobenzyl)-6-(1-methylcyclopropoxy)-9H-purin-8-yl)phenoxy)-2-methylbutanoyl)glycine]
12.6 | Cc1ccnc(Cn2c(-c3ccc(C(=O)N4CCCNCC4)cc3Cl)nc3c(OC4(C)CC4)ncnc32)c1 [Example T496, (3-chloro-4-(6-(1-methylcyclopropoxy)-9-((4-methylpyridin-2-yl)methyl)-9H-purin-8-yl)phenyl)(1,4-diazepan-1-yl)methanone]
6.31 | CC1(Oc2ncnc3c2nc(-c2ccc(OCCC(C)(C)C(=O)O)cc2Cl)n3Cc2cccc(Cl)c2)CC1 [Example T435, 4-(3-chloro-4-(9-(3-chlorobenzyl)-6-(1-methylcyclopropoxy)-9H-purin-8-yl)phenoxy)-2,2-dimethylbutanoic acid]
5.01 | CC1(Oc2ncnc3c2nc(-c2ccc(OCCN4C[C@H]5C[C@@H]4CN5)cc2Cl)n3Cc2cc(Cl)ccn2)CC1 [Example T485, 8-(4-(2-((1R,4R)-2,5-diazabicyclo[2.2.1]heptan-2-yl)ethoxy)-2-chlorophenyl)-9-((4-chloropyridin-2-yl)methyl)-6-(1-methylcyclopropoxy)-9H-purine]
3.16 | COc1ccc(Cl)cc1Cn1c(-c2cccc(OCC[C@@H](C)C(=O)O)c2Cl)nc2c(OC3(C)CC3)ncnc21 [Example U75, (R)-4-(2-chloro-3-(9-(5-chloro-2-methoxybenzyl)-6-(1-methylcyclopropoxy)-9H-purin-8-yl)phenoxy)-2-methylbutanoic acid]
2.51 | Cc1ccnc(Cn2c(-c3ccc(O[C@H]4CCNC4)cc3Cl)nc3c(OC4(C)CC4)ncnc32)c1 [Example T208, (S)-8-(2-chloro-4-(pyrrolidin-3-yloxy)phenyl)-6-(1-methylcyclopropoxy)-9-((4-methylpyridin-2-yl)methyl)-9H-purine]
3.98 | CC(CCOc1ccc(-c2nc3c(OC4(C)CC4)ncnc3n2Cc2cccc(C3CC3)c2)c(Cl)c1)C(=O)O (racemic) [Example T601, 4-(3-chloro-4-(9-(3-cyclopropylbenzyl)-6-(1-methylcyclopropoxy)-9H-purin-8-yl)phenoxy)-2-methylbutanoic acid]
5.01 | CC1(Oc2ncnc3c2nc(-c2ccc(N4CCC(N)CC4)cc2Cl)n3Cc2cc(Cl)ccn2)CC1 [Example T230, 1-(3-chloro-4-(9-((4-chloropyridin-2-yl)methyl)-6-(1-methylcyclopropoxy)-9H-purin-8-yl)phenyl)piperidin-4-amine]
63.1 | Cc1ccnc(Cn2c(-c3ccc(C(=O)N4CCC[C@H](O)C4)cc3Cl)nc3c(OC4(C)CC4)ncnc32)c1 [Example T461, (S)-(3-chloro-4-(6-(1-methylcyclopropoxy)-9-((4-methylpyridin-2-yl)methyl)-9H-purin-8-yl)phenyl)(3-hydroxypiperidin-1-yl)methanone]
5.01 | CC(COc1ccc(-c2nc3c(OC4(C)CC4)ncnc3n2Cc2cc(Cl)ccc2F)c(Cl)c1)CC(=O)O (racemic) [Example U45, 4-(3-chloro-4-(9-(5-chloro-2-fluorobenzyl)-6-(1-methylcyclopropoxy)-9H-purin-8-yl)phenoxy)-3-methylbutanoic acid]
10 | Cc1ccnc(Cn2c(-c3ccc(CC(=O)NC[C@H](C)O)cc3Cl)nc3c(OC4(C)CC4)ncnc32)c1 [Example T371, (S)-2-(3-chloro-4-(6-(1-methylcyclopropoxy)-9-((4-methylpyridin-2-yl)methyl)-9H-purin-8-yl)phenyl)-N-(2-hydroxypropyl)acetamide]
7.94 | Cc1ccnc(Cn2c(-c3ccc(OCC4(O)COC4)cc3Cl)nc3c(OC4(C)CC4)ncnc32)c1 [Example T200, 3-((3-chloro-4-(6-(1-methylcyclopropoxy)-9-((4-methylpyridin-2-yl)methyl)-9H-purin-8-yl)phenoxy)methyl)oxetan-3-ol]
7.94 | CNC(=O)N1CC(Oc2ccc(-c3nc4c(OC5(C)CC5)ncnc4n3Cc3cc(C)ccn3)c(Cl)c2)C1 [Example T343, 3-(3-chloro-4-(6-(1-methylcyclopropoxy)-9-((4-methylpyridin-2-yl)methyl)-9H-purin-8-yl)phenoxy)-N-methylazetidine-1-carboxamide]
25.1 | Cc1ccnc(Cn2c(-c3ccc(C(=O)N(C)CCO)cc3Cl)nc3c(OC4(C)CC4)ncnc32)c1 [Example T220, 3-chloro-N-(2-hydroxyethyl)-N-methyl-4-(6-(1-methylcyclopropoxy)-9-((4-methylpyridin-2-yl)methyl)-9H-purin-8-yl)benzamide]
3.98 | Cc1csc(Cn2c(-c3ccc(OCCN4CCNCC4)cc3Cl)nc3c(OC4(C)CC4)ncnc32)n1 [Example T248, 2-((8-(2-chloro-4-(2-(piperazin-1-yl)ethoxy)phenyl)-6-(1-methylcyclopropoxy)-9H-purin-9-yl)methyl)-4-methylthiazole]
10 | Cc1ccnc(Cn2c(-c3ccc(OCC(=O)N[C@H](C)CCO)cc3Cl)nc3c(OC4(C)CC4)ncnc32)c1 [Example T516, (R)-2-(3-chloro-4-(6-(1-methylcyclopropoxy)-9-((4-methylpyridin-2-yl)methyl)-9H-purin-8-yl)phenoxy)-N-(4-hydroxybutan-2-yl)acetamide]
